Laboratory results from patent publication US5602229A, “Pentapeptide antibiotics” (Gruppo Lepetit S.p.A., priority 1989, dated 1997).

Test: Acid-base titration (pKa)
Type: physicochemical
Details: methyl cellosolve/H2O 4/1, excess 0.01M HCl, titrated with 0.01N NaOH
Method: Acid-base titrations were carried out under the following conditions: the sample was dissolved in a mixture methyl cellosolve/H2 O 4/1, then an excess of 0.01M HCl in the same solvent mixture was added and the resulting solution was titrated with 0.01N NaOH.

pKa2: 8.3
pKa3: 9.4
Substance: reductive cleavage product of vancomycin [Example 6]
